Reference: PubChem BioAssay AID276 (DTP/NCI, 2004)
Inconclusive results and toxic doses are left out.

Tested on: B6C3F1 mice, Lewis lung carcinoma iv, survival T/C
Assay: NCI In Vivo Anticancer Drug Screen. Data for tumor model Lewis Lung Carcinoma (intravenous) in B6C3F1 mice
Settings: endpoint: median survival time; dose: 25.0 mg/kg/injection; schedule: Q01DX009 (ip); vehicle: dextrose; higher = longer survival
Description: The antitumor activity of compounds was measured in mice bearing transplantable tumors. Survival or tumor size were measured and the results are expressed as the measurement made in the treated group (T) divided by the measurement made in the vehicle treated control group (C). The tumor model used in this assay is Lewis Lung Carcinoma (intravenous) in B6C3F1 mice

O=C(O)CC(=O)O.[NH-]CC[NH-].[Pt+2]
T/C: 156 % of control
